# Binding of CDR-mutated scFvs to a peptide of the spike HR2 region

Target peptide (SARS-CoV-2 spike, HR2 region): PDVDLGDISGINAS

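The starting antibody came from a phage panning campaign against this peptide. Designed CDR sequences, proposed from the first random library and measured here. Several design methods are mixed in this list. Affinity was read by AlphaSeq, a pooled yeast mating assay with surface-displayed partners. The frequency of each diploid, read from paired DNA barcodes, reflects how well the two displayed proteins bind. Read counts were normalised to the haploid input and turned into Kd by a linear fit to BCL2-family pairs of known affinity, for each replicate. There are six technical replicates.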

Parent: Ab-14, a human scFv built as VH, three GGGGS repeats, VL. Only the CDRs of the light chain vary.
VH: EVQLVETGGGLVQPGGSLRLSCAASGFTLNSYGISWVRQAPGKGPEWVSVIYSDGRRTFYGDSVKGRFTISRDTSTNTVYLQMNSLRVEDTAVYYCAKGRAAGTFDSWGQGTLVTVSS
VL: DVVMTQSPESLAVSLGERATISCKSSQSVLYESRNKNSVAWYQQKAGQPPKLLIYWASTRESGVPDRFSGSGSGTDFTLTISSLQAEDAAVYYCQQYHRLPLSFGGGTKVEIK

The parent's light chain CDRs are KSSQSVLYESRNKNSVA, WASTRES, QQYHRLPLS; each variant's own CDRs replace them letter for letter. The read-out is the apparent dissociation constant on a log10 scale (nM): the lower, the stronger. Averages over replicates are reported, and they cover detected replicates only. "nd" means that the variant was in the library but no mating with the target was seen in any replicate; the authors take this as a sign of poor binding, and no number exists. Background: pairings of all light chain designs with three empty control strains gave a value in 4% of cases (median 2.64, 5th percentile 1.59). Values in that range, when seen in few replicates, are hard to tell from nonspecific mating. The parent sequence was in this pool as ten entries: three were never detected, three once, and four in most replicates, with averages from 0.34 to 2.37. The authors' rule: three or more of the six replicates give a measured affinity, fewer mean a poor binder. A sequence measured in both rounds can read differently, since the two assays cover different ranges.

CDR-L1	CDR-L2	CDR-L3	mean log10 Kd (nM)	detected
KLKQSVLYESRNKNSVA	NASTRMS	QQYHRLPLS	-0.33	6/6
QITFVQQYDAPNTYNVA	DATVSGR	QQYSQLPLI	1.62	6/6
KSSDSYLEESRNKNSVA	EASTRES	QQYHRLPLS	-0.08	6/6
KLDQSVLYESRNKNSVA	NASTRES	QQYHRLPLS	-0.57	6/6
KYQQSVLYESRNKNNVA	HASTRED	QQYHRLPLS	0.43	6/6
VFSGLFQGDEQQYNSIA	EASLSNT	QQYISLPLS	1.39	1/6
KVSQSHLYESRMKNSVA	DASTRCS	QQYHRLPLS	-0.34	6/6
KVENYPENFRSAKDNIA	ADSATTS	QQYDRLPLA	2.87	1/6
MISGSVMSESRLKNSVA	QTTTREY	QQYDRLPLS	0.76	6/6
KSSQSVLYESRNKNSVA	WASTRES	QMYHDLPLS	nd	0/6
KLQQSMLYESRNKNSVA	HASTRES	QQYHRLPLS	0.02	6/6
KLPQSVLYESRNKNSVA	NASTRLS	QQYHRLPLS	-0.26	6/6
KFSQSVLYESRTKNSVA	NASTRES	QAYHRLPLS	0.19	6/6
KLQQSWLYESRNKNSVA	SASTRES	QQYHRLPLS	0.02	6/6
KSSISVLYESRNKNSVA	NASTRES	QQYHRLPLS	1.66	6/6
NFSQMVLTGLTLKNSVA	HASTREE	QQYHRLPLI	0.92	6/6
KLSFSVLYESRNKNNVA	GASTRES	QQYHRLPLS	-0.52	6/6
KLSQSQLYEDRVKNSVA	GASTRES	QQYHRLPLS	0.01	6/6
KLSQSVEYESRNKNSVA	NASTREY	QQYHRLPLA	-0.31	6/6
QIYQAMHTLSQMKDNVA	DVSERGS	QQYFRLPLS	0.44	6/6
KQSCSELYGSRNKNSVA	DASQRES	QQYHRLPLS	-0.35	6/6
IVSQLMLWGMHATNSIA	EAQTRLN	QQYDRLPLL	2.00	2/6
KSSLSVLYGSHCKNSVA	KASTREE	QQYHQLPLS	nd	0/6
MISQLMNLGQFAINSVA	QATIRNS	QQYDRLPLV	0.86	6/6
KSSQGWLYESRNKNSVA	GASTRES	QQYHRLPLS	0.09	6/6
KQQQSMLYESRNSNSVA	NASQREE	QQYHRLPLM	0.02	6/6
ILSQSVLMESRNKNSVA	DASTRES	QQYHRLPLS	-0.03	6/6
KVSQLGLYGQRNKMSVA	DASQRED	QQYHRLPLS	-0.09	6/6
MVSMMPNEPTRYSNAIA	DHSQRNT	QQYDQLPLS	1.77	5/6
KLRQSCLYEDRNKNNVA	MASQRCS	QQYHRLPLS	-0.02	6/6
ALGDVTRMESNKKDSIA	DMSNRES	QQYHRLPLS	0.01	6/6
KISMLQRYASQNKNSIA	EMSRREN	QQYHRLPLS	0.00	6/6
KSPISYLYESRNKNSVA	AASTRES	QQYHRLPLS	-0.26	6/6
KFLQSVLYESRNKNSVA	HASTRED	QQYGRLPLS	0.32	6/6
NMDSQLTHAHENCNSIA	NGQLARI	QQYSRLPFS	1.39	4/6
KLSQSGWMESRNKNNVA	EASQRES	QQYHRLPLS	-0.48	6/6
KISMSYRYESQETNSIA	EMSTREE	QSYHRLPLS	1.39	6/6
KSSQSVLYESRNCNSVA	WASTRSS	QQYHRLPLS	1.18	6/6
KSSQSVLYESENKNSVA	EAETRES	QQYHRLPLS	1.36	6/6
KDCQSVLAESRNVNSVA	WASTRES	QQYHRVPLS	nd	0/6
KLQQSVGMESWNVNNVA	AASTRED	QQYHRLPLS	1.26	6/6
TISQITSLFSQTINNVA	EVSTREE	QQYDRLPLS	0.85	6/6
KSSESYLYESRNENSVA	EASTREQ	QQYHRLPLS	0.10	6/6
KSQQSVLYESRNKNSVA	GASTRES	QQYHRLPLS	0.79	6/6
KLQFGVLYESRNKNSVA	GASTRES	QAYHRLPLS	-0.06	6/6
MISNVMNTLTRAGNNVA	DLAEREK	QQYFRLPLS	-0.03	6/6
KSQQSWLYESRNKNSVA	KGSTRES	QQYHRLPLS	0.85	6/6
KLSQSVPYESRNKWSVA	NASTRES	QQYHRLPLS	-0.30	6/6

The last 3 entries again:

CDR-L1,CDR-L2,CDR-L3,mean log10 Kd (nM),detected
MISNVMNTLTRAGNNVA,DLAEREK,QQYFRLPLS,-0.03,6/6
KSQQSWLYESRNKNSVA,KGSTRES,QQYHRLPLS,0.85,6/6
KLSQSVPYESRNKWSVA,NASTRES,QQYHRLPLS,-0.30,6/6

Values reported by Li et al. 2023, doi:10.1038/s41467-023-39022-2 (FLAb copy).